These results are taken from patent US20250195530A1, “POLQ INHIBITORS” (ASTRAZENECA AB, priority 2022, published 2025).

Protein sequences, listed by entry. Tags and fused reporters are not part of them. Residues count along the entry.
UniProt O75417, 1780-2590: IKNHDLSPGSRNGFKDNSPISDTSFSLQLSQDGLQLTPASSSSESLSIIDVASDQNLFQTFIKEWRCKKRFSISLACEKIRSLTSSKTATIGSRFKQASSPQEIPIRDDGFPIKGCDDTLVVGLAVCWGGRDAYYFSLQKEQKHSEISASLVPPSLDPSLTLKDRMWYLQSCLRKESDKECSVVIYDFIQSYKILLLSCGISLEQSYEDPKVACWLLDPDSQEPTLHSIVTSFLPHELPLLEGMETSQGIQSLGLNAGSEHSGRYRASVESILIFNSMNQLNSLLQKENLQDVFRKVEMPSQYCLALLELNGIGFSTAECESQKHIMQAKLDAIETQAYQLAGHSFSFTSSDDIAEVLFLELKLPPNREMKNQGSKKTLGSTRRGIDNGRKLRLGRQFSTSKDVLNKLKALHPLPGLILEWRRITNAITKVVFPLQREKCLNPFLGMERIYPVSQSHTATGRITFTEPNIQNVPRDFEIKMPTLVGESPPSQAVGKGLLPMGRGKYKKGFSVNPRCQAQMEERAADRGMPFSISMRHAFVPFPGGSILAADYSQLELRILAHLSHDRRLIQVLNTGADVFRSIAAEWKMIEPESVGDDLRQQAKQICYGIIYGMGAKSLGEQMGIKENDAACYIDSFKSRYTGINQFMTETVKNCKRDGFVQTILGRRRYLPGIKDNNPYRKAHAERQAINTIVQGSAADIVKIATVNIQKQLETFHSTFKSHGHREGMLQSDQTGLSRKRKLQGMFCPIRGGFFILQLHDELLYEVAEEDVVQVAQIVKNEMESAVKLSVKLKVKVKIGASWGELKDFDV

pIC50: −log10 of the molar value.

This experiment concerns the target isolated polymerase domain (I1780-V2590) of DNA polymerase theta (Polθ) (Homo sapiens (Human), UniProt O75417). As to the kind of experiment: biochemical.

The compound `Cc1ccnc(Cn2c(-c3ccc(C(=O)N4CCC[C@H]4C#N)cc3Cl)nc3c(OC4(C)CC4)ncnc32)c1` [Example T404, (S)-1-(3-chloro-4-(6-(1-methylcyclopropoxy)-9-((4-methylpyridin-2-yl)methyl)-9H-purin-8-yl)benzoyl)pyrrolidine-2-carbonitrile] had a pIC50 of 7.40.
Then `Cc1ccnc(Cn2c(-c3ccc(C(=O)N4CC[C@@H](C#N)C4)cc3Cl)nc3c(OC4(C)CC4)ncnc32)c1` [Example T405, (R)-1-(3-chloro-4-(6-(1-methylcyclopropoxy)-9-((4-methylpyridin-2-yl)methyl)-9H-purin-8-yl)benzoyl)pyrrolidine-3-carbonitrile], with 7.60.
Then `CC1(Oc2cccc3c2nc(-c2ccc(OCCC(=O)O)cc2Cl)n3Cc2cccc(Cl)c2)CCC1` [Example T406, 3-(3-chloro-4-(1-(3-chlorobenzyl)-4-(1-methylcyclobutoxy)-1H-benzo[d]imidazol-2-yl)phenoxy)propanoic acid], with 8.00.
Consider `CC1(Oc2ncnc3c2nc(-c2ccc(OCCC4(C(=O)O)CC4)cc2Cl)n3Cc2cccc(Cl)c2)CC1` [Example T407, 1-(2-(3-chloro-4-(9-(3-chlorobenzyl)-6-(1-methylcyclopropoxy)-9H-purin-8-yl)phenoxy)ethyl)cyclopropane-1-carboxylic acid], for which the pIC50 was 8.00.
Then `Cc1ccnc(Cn2c(-c3ccc(C(=O)N4C[C@@H]5C[C@H]4CO5)cc3Cl)nc3c(OC4(C)CC4)ncnc32)c1` [Example T416, ((1S,4S)-2-oxa-5-azabicyclo[2.2.1]heptan-5-yl)(3-chloro-4-(6-(1-methylcyclopropoxy)-9-((4-methylpyridin-2-yl)methyl)-9H-purin-8-yl)phenyl)methanone], with 7.30.
In turn, `Cc1ccnc(Cn2c(-c3ccc(C(=O)N4CCC[C@H](F)C4)cc3Cl)nc3c(OC4(C)CC4)ncnc32)c1` [Example T418, (S)-(3-chloro-4-(6-(1-methylcyclopropoxy)-9-((4-methylpyridin-2-yl)methyl)-9H-purin-8-yl)phenyl)(3-fluoropiperidin-1-yl)methanone] had a negative-log IC50 (pIC50) of 7.30.
The compound `Cc1ccnc(Cn2c(-c3ccc(C(=O)N4CCC(F)CC4)cc3Cl)nc3c(OC4(C)CC4)ncnc32)c1` [Example T419, (3-chloro-4-(6-(1-methylcyclopropoxy)-9-((4-methylpyridin-2-yl)methyl)-9H-purin-8-yl)phenyl)(4-fluoropiperidin-1-yl)methanone] gave a pIC50 of 7.30.
Then `Cc1ccnc(Cn2c(-c3ccc(OCC(=O)N4CC[C@H](F)C4)cc3Cl)nc3c(OC4(C)CC4)ncnc32)c1` [Example T420, (S)-2-(3-chloro-4-(6-(1-methylcyclopropoxy)-9-((4-methylpyridin-2-yl)methyl)-9H-purin-8-yl)phenoxy)-1-(3-fluoropyrrolidin-1-yl)ethan-1-one], with 8.10; and `Cc1ccnc(Cn2c(-c3ccc(OCC(=O)NC4CC(F)C4)cc3Cl)nc3c(OC4(C)CC4)ncnc32)c1` (centres unmarked) [Example T421, 2-(3-chloro-4-(6-(1-methylcyclopropoxy)-9-((4-methylpyridin-2-yl)methyl)-9H-purin-8-yl)phenoxy)-N-(3-fluorocyclobutyl)acetamide], with 8.10.
Under `Cc1ccnc(Cn2c(-c3ccc(CC(=O)N4C[C@@H](O)[C@H](F)C4)cc3Cl)nc3c(OC4(C)CC4)ncnc32)c1` [Example T422, 2-(3-chloro-4-(6-(1-methylcyclopropoxy)-9-((4-methylpyridin-2-yl)methyl)-9H-purin-8-yl)phenyl)-1-((3R,4R)-3-fluoro-4-hydroxypyrrolidin-1-yl)ethan-1-one] stands 8.00.
Regarding `Cc1ccnc(Cn2c(-c3ccc(OCC(=O)N4C[C@@H](O)[C@H](F)C4)cc3Cl)nc3c(OC4(C)CC4)ncnc32)c1` [Example T423, 2-(3-chloro-4-(6-(1-methylcyclopropoxy)-9-((4-methylpyridin-2-yl)methyl)-9H-purin-8-yl)phenoxy)-1-((3R,4R)-3-fluoro-4-hydroxypyrrolidin-1-yl)ethan-1-one], the pIC50 was 8.20.
Then `FC(F)(F)C1(Oc2ncnc3c2nc(-c2ccc(OCCN4CCNCC4)cc2Cl)n3Cc2ccccc2)COC1` [Example T424, 9-benzyl-8-(2-chloro-4-(2-(piperazin-1-yl)ethoxy)phenyl)-6-((3-(trifluoromethyl)oxetan-3-yl)oxy)-9H-purine], with 7.40; and `CC1(Oc2ncnc3c2nc(-c2ccc(OCCCN4CC(O)C4)cc2Cl)n3Cc2cc(C(F)(F)F)ccn2)CC1` [Example T425, 1-(3-(3-chloro-4-(6-(1-methylcyclopropoxy)-9-((4-(trifluoromethyl)pyridin-2-yl)methyl)-9H-purin-8-yl)phenoxy)propyl)azetidin-3-ol], with 8.30.
Then `Cc1ccnc(Cn2c(-c3ccc(OC4CC5(COC5)C4)cc3Cl)nc3c(OC4(C)CC4)ncnc32)c1` [Example T426, 8-(4-((2-oxaspiro[3.3]heptan-6-yl)oxy)-2-chlorophenyl)-6-(1-methylcyclopropoxy)-9-((4-methylpyridin-2-yl)methyl)-9H-purine], with 8.10.
Under `Cc1ccnc(Cn2c(-c3ccc(C(=O)N4CC5CC(C4)N5)cc3Cl)nc3c(OC4(C)CC4)ncnc32)c1` [Example T427, (3,6-diazabicyclo[3.1.1]heptan-3-yl)(3-chloro-4-(6-(1-methylcyclopropoxy)-9-((4-methylpyridin-2-yl)methyl)-9H-purin-8-yl)phenyl)methanone] stands 7.60.
The compound `Cc1ccnc(Cn2c(-c3ccc(C(=O)N4CC5(CNC5)C4)cc3Cl)nc3c(OC4(C)CC4)ncnc32)c1` [Example T428, (3-chloro-4-(6-(1-methylcyclopropoxy)-9-((4-methylpyridin-2-yl)methyl)-9H-purin-8-yl)phenyl)(2,6-diazaspiro[3.3]heptan-2-yl)methanone] showed a pIC50 of 8.60.
For `Cc1ccnc(Cn2c(-c3ccc(C(=O)N4CC5(CCN5)C4)cc3Cl)nc3c(OC4(C)CC4)ncnc32)c1` [Example T429, (3-chloro-4-(6-(1-methylcyclopropoxy)-9-((4-methylpyridin-2-yl)methyl)-9H-purin-8-yl)phenyl)(1,6-diazaspiro[3.3]heptan-6-yl)methanone], the pIC50 is 8.40.
Then `Cc1ccnc(Cn2c(-c3ccc(OCC(=O)N(C)CCC#N)cc3Cl)nc3c(OC4(C)CC4)ncnc32)c1` [Example T430, 2-(3-chloro-4-(6-(1-methylcyclopropoxy)-9-((4-methylpyridin-2-yl)methyl)-9H-purin-8-yl)phenoxy)-N-(2-cyanoethyl)-N-methylacetamide], with 7.80; and `Cc1ccnc(Cn2c(-c3ccc(CC(=O)N4CCNC(=O)C4)cc3Cl)nc3c(OC4(C)CC4)ncnc32)c1` [Example T431, 4-(2-(3-chloro-4-(6-(1-methylcyclopropoxy)-9-((4-methylpyridin-2-yl)methyl)-9H-purin-8-yl)phenyl)acetyl)piperazin-2-one], with 7.80.
Then `Cc1ccnc(Cn2c(-c3ccc(OCC(=O)N4CCNC(=O)C4)cc3Cl)nc3c(OC4(C)CC4)ncnc32)c1` [Example T432, 4-(2-(3-chloro-4-(6-(1-methylcyclopropoxy)-9-((4-methylpyridin-2-yl)methyl)-9H-purin-8-yl)phenoxy)acetyl)piperazin-2-one], with 7.90.

For orientation: pIC50 means the negative decadic logarithm of the IC50, by convention in mol/L. Low values mean a large IC50, high ones a small IC50.
